Test results taken from patent US10973849B2, “Rhenium complexes and methods of use for treating cancer” (CORNELL UNIVERSITY, priority 2016, dated 2021).

Test system: HeLa (cervical cancer) cell line
Experiment: MTT cell viability of phosphino-Re(I) complexes in HeLa cells, dark or 365 nm light
Type: cell-based, human
Conditions: single concentration; for Single Dose Cell Viability (%) Light: 365 nm for 1 hour; for Single Dose Cell Viability (%) Dark: kept in the dark
Procedure: HeLa (cervical cancer) cell line was cultured using Dulbecco's Modified Eagle's Medium (DMEM) supplemented with 10% fetal bovine serum (FBS). A2780 (ovarian cancer) and A2780CP70 (cisplatin-resistant ovarian cancer) cell lines were cultured as monolayers with Roswell Park Memorial Institute (RPMI)-1640 culture media supplemented with 10% fetal bovine serum. All cell lines were grown in a humidified incubator at 37° C. with an atmosphere of 5% CO2. Cells were passed at 80-90% confluence, using trypsin/EDTA. Cells were tested monthly for mycoplasma contamination with the PlasmoTest™ mycoplasma detection kit from InvivoGen.
All compounds were dissolved in phosphate-buffered saline (PBS, pH 7.4) to prepare a 1-2 mM stock solution. For single dose studies, only HeLa cells were used. For both the single dose and full dose response, all cells were grown to 80-90% confluence, detached with trypsin/EDTA, seeded in 96-well plates at 2000 cells/well for HeLa cells and 4000 cells/well for A2780 and A2780CP70 cells in 100 μL of growth media, and incubated for 24 hours. The medium was removed and replaced with fresh medium (200 μL) containing a single concentration of a rhenium(I) complex or media. The cells were then incubated for 4 hours, and then the cells were dosed with 365 nm for 1 hour (one plate under the same dosing conditions was kept outside the incubator in the dark as a control). After exposure to light, the plates incubated for an additional 44 hours, the medium was removed from the wells, and (3(4,5-dimethylthiazol-2-yl)-2,5-tetrazolium bromide (MTT) in RPMI (200 μL, 1 mg/mL) was added. After 4 hours, the MTT/RPMI solution was removed, and the formazan crystals were dissolved in 200 μL of an 8:1 mixture of DMSO and pH 10 glycine buffer. The absorbance at 570 nm in each well was measured using a BioTek Synergy™ HT plate reader. Cell viability was determined by normalizing the absorbance of the treated wells to untreated wells. All compounds that had less than 50% cell viability were analyzed using a full dose response. The % viability data is an average of three independent experiments with six replicates per concentration. The same procedure was followed as above for the full dose response but instead, after 24 hours, varying concentrations of the desired compounds were added. Cell viability was again determined by normalizing the absorbance of the treated wells to untreated wells The concentration of the compound versus % viability was plotted to produce dose-response curves, which were analyzed using a logistic sigmoid function fit with MagicPlot Pro™ software. The reported IC50 values are the average of three independent experiments with six replicates per concentration level.

| Substance | Single Dose Cell Viability (%) Light [%] | Single Dose Cell Viability (%) Dark [%] |
| --- | --- | --- |
| Re(CO)3(bpy)(DAPTA) [DAPTA-bpy (9)] | 11.6 ± 10.1 | 97.1 ± 4.3 |
| Re(CO)3(dmbpy)(DAPTA) [DAPTA-dmbpy (12)] | 19.6 ± 17.0 | 100.0 ± 0.6 |
| Re(CO)3(dmobpy)(DAPTA) [DAPTA-dmobpy (15)] | 5.0 ± 7.0 | 76.6 ± 1.1 |
| Re(CO)3(dmphen)(DAPTA) [DAPTA-dmphen (6)] | 5.6 ± 7.9 | 98.1 ± 3.3 |
| Re(CO)3(phen)(DAPTA) [DAPTA-phen (3)] | 6.3 ± 0.6 | 93.3 ± 0.7 |
